# Bioassay records deposited in PubChem BioAssay by National Center for Advancing Translational Sciences (NCATS).
# miR-21 reporter: raises the signal of a miR-21 reporter | HeLa miR-21 FLuc reporter, luciferase, 48 h | Potency, µM (doses to about 38.3 µM), without a hit: at the top dose reporter change, positive = more light | 340,000 tested, under 10 active | AID 2288; active = well fitted rising curve with a large enough effect; inconclusive = small, poorly fitted or top-dose-only effect; inactive = no such curve, though single readings can be large or run the other way;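 note: % of control where 0% means no effect; miR-21 action dims this reporter so a rising signal means less miR-21 action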
#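 Compounds were titrated across several concentrations (up to approximately 40 uM) and incubated 48 hours with HeLa miR-21-FLuc reporter cells (miR-21 target sequence downstream of FLuc, endogenous miR-21). Readout was firefly luciferase luminescence after lytic detection reagent.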
# uPA generation: blocks generation of uPA at the cell surface; cell surface uPA generation assay, qHTS; Potency, µM (highest dose often 38.3 µM), inactives show at the highest dose activity change, negative = inhibition, most hits filed as inhibitors; 330,000 tested, 0.31% active; active = well fitted inhibition curve with a large enough effect; inconclusive = small, poorly fitted or top-dose-only effect; inactive = no such curve, though single readings can be large or run the other way; tested in mouse RAW 264.7 cells; note: potency is the fitted concentration of half-maximal effect; % is set by controls: 0 for no effect and ±100 for the full control effect; nearly all actives have a fitted effect of over 55% in size
# DT40 TDP1 CPT: growth inhibition of DT40 Tdp1-/-;hTDP1 cells with camptothecin (screen for TDP1 inhibitors); chicken DT40 Tdp1-/-;hTDP1 cells + 20 nM CPT, ATP luminescence, 48 h; Potency, µM (series often up to 46.2 µM), without a hit: at the top dose activity change, negative = growth inhibition, most hits filed as inhibitors; 420,000 tested, 12% active; AID 686979; note: potency is the fitted concentration of half-maximal effect; % is set by controls: 0 for no effect and ±100 for the full control effect; nearly all actives have a fitted effect of over 55% in size
#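 Chicken DT40 Tdp1-/- cells complemented with human TDP1, 400 cells/well, exposed to compounds plus 20 nM camptothecin for at least 48 h at 37 C; viability read as ATP content by CellTiter-Glo luminescence.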
# TDP1 inh: blocks human tyrosyl-DNA phosphodiesterase 1; recombinant TDP1, AlphaScreen DNA substrate cleavage; Potency, µM (doses to about 130 µM), for inactives: at the highest dose activity change, negative = inhibition, hits mostly inhibitors; 350,000 tested, 0.28% active; AID 485290; note: potency is the fitted concentration of half-maximal effect; % is set by controls: 0 for no effect and ±100 for the full control effect; nearly all actives have a fitted effect of over 40% in size
#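 AlphaScreen read-out: signal falls as enzyme removes the 3' tyrosine-FITC from a 5'-biotinylated DNA oligo (15 nM, 5 min, RT). Enzyme was E. coli-made recombinant Tdp1 at 1 nM, exposed to compound for 15 min beforehand; beads 10 ug/ml, 10 min.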
# DT40 TDP1 no CPT: qHTS for Inhibitors of human tyrosyl-DNA phosphodiesterase 1 (TDP1): qHTS in cells in absence of CPT | DT40 Tdp1-/- hTDP1 cells, no CPT, ATP luminescence, 48 h | Potency, µM (top dose mostly 46.2 µM), inactives show at the highest dose activity change, negative = growth inhibition, usual class: inhibitors | 420,000 tested, 15% active | AID 686978, 2013; note: potency is the fitted concentration of half-maximal effect; % is set by controls: 0 for no effect and ±100 for the full control effect; nearly all actives have a fitted effect of over 55% in size
#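 Readout: luminescence from CellTiter-Glo after 30 min in the dark at RT. Cells: DT40 Tdp1-/- with stable hTDP1, 400/well. Exposure: compounds alone, ≥48 hr, 37 °C.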
# Starred values were filed as active, the others as inactive; ? = inconclusive; nt = no result given; ! = repeats disagree; [ ] = dose if it differs, or a comment. An excerpt weighted towards active compounds, which were near 16% of everything screened. Unless noted, calls come from the whole dose curve; as a rule, active = well fitted curve in the direction sought with a large enough effect; inconclusive = small, poorly fitted or top-dose-only effect, or another doubt; inactive = no such curve, though single readings can be large; an effect the other way counts as inactive or inconclusive.
(1) O=C(Cc1ccc(-c2ccccc2)cc1)NCCS(=O)(=O)N1CCN(c2ccccc2F)CC1
(2) COc1ccc(CC(=O)NCCS(=O)(=O)N2CCN(c3ccccc3F)CC2)cc1OC
(3) O=C(Cc1cccs1)NCCS(=O)(=O)N1CCN(c2ccccc2)CC1
(4) O=C(Cc1cccs1)NCCS(=O)(=O)N1CCN(c2ccccc2F)CC1
(5) O=C(CC1CCCC1)NCCS(=O)(=O)N1CCN(c2ccccc2F)CC1
(6) Cc1nnc(NC(=O)c2ccc(-c3ccc([N+](=O)[O-])cc3)o2)s1
(7) O=C(NC1CCSc2ccccc21)c1ccccc1F (stereo not drawn)
(8) CCOC(=O)N1CCC(NC(=O)c2cc(COc3c(C)cccc3C)on2)CC1

screen / no.	1	2	3	4	5	6	7	8
DT40 TDP1 CPT	10µM*	?	-27%	7.3µM*	?	-3%	-6%	?
miR-21 reporter	15%	0%	nt	nt	nt	0%	-29%	10%
uPA generation	nt	nt	nt	3.2µM*	-5%	2%	-6%	-3%
DT40 TDP1 no CPT	15µM*	?	?	5.8µM*	?	-4%	-1%	?
TDP1 inh	-4%	8%	nt	nt	0%	-15%	1%	3%

(9) COc1ccccc1OCCCn1c(C2CC(=O)N(c3ccc(F)cc3)C2)nc2ccccc21 (stereo not drawn)
(10) CCOc1ccc(N2CC(c3nc4ccccc4n3CCCOc3ccccc3OC)CC2=O)cc1 (stereo not drawn)
(11) CCOc1ccc(N2CC(c3nc4ccccc4n3CCOc3ccccc3)CC2=O)cc1 (stereo not drawn)
(12) Cc1ccc2c(c1)C1(C(=O)N2)N2CCCC2C(C(=O)c2ccc3ccccc3c2)C12C(=O)Nc1ccccc12 (stereo not drawn)
(13) O=C1CCC(C(=O)N2CCCC(C(=O)c3ccc4ccccc4c3)C2)=NN1 (stereo not drawn)
(14) N[C@@H](C(=O)O)c1ccc(C(=O)O)c(C(=O)O)c1
(15) CN(C)CCCNc1oc(-c2ccccc2Cl)nc1S(=O)(=O)c1ccc(F)cc1
(16) CCOC(=O)C1=C(COc2ccc(C)cc2)NC(=O)NC1c1cc(C)ccc1C (stereo not drawn)

screen / no.	9	10	11	12	13	14	15	16
DT40 TDP1 CPT	?	?	?	16µM*	?	-7%	?	23µM*
miR-21 reporter	-6%	19%	-2%	-4%	2%	nt	4%	-1%
uPA generation	nt	nt	nt	4%	?	nt	-7%	6%
DT40 TDP1 no CPT	8.2µM*	8.2µM*	?	?	?	-14%	-28%	12µM*
TDP1 inh	8%	0%	6%	8%	4%	40µM*!	7%[56.1 µM]	0%

(17) CCOC(=O)C1=C(COc2ccc(F)cc2Cl)NC(=O)NC1c1cc(C)ccc1C (stereo not drawn)
(18) CCOC(=O)C1=C(COC(=O)/C=C/c2ccc(OC)cc2OC)NC(=O)NC1C (stereo not drawn)
(19) CCOC(=O)C1=C(CNCc2ccc(C)cc2)NC(=O)NC1c1ccc(OC)cc1 (stereo not drawn)
(20) CCOC(=O)C1=C(CS(=O)(=O)c2ccc(C)c(C)c2)NC(=O)NC1c1ccc(O)cc1 (stereo not drawn)
(21) CCOC(=O)C1=C(CS(=O)(=O)c2ccc(F)c(C)c2)NC(=O)NC1c1ccccc1OC (stereo not drawn)
(22) CCOC(=O)C1=C(COC(=O)CCOc2ccc(C)cc2)NC(=O)NC1C (stereo not drawn)
(23) CCOC(=O)C1=C(C)NC(=O)NC1c1ccccc1OCc1c(F)cccc1Cl (stereo not drawn)
(24) O=C(Nc1cccc(Cl)c1)c1cc(S(=O)(=O)N2CCC3(CC2)OCCO3)ccc1F

screen / no.	17	18	19	20	21	22	23	24
DT40 TDP1 CPT	?	?	21µM*	-14%	29µM*	6.5µM*	23µM*	?
miR-21 reporter	-7%	nt	26%	0%	7%	nt	0%	12%
uPA generation	12%	2%	-8%	2%	nt	-13%	-9%	nt
DT40 TDP1 no CPT	21µM*	15µM*	21µM*	-19%	?	5.8µM*	16µM*	?
TDP1 inh	-2%	9%	12%	0%	1%	nt	2%	10%

(25) O=C(Nc1ccc(Cl)cc1Cl)c1cc(S(=O)(=O)N2CCN(c3ccccc3F)CC2)ccc1F
(26) O=C(Nc1ccc(Cl)cc1Cl)c1cc(S(=O)(=O)N2CCCCCC2)ccc1F
(27) Cc1ccc(NC(=O)c2cc(S(=O)(=O)N3CCC4(CC3)OCCO4)ccc2F)cc1Cl
(28) O=C(Nc1ccc(Cl)cc1Cl)c1cc(S(=O)(=O)N2CCC3(CC2)OCCO3)ccc1F
(29) CCCCc1ccc(NC(=O)CSc2nc(=O)n3cc(C)ccc3n2)cc1
(30) CCCCCNC(=O)CN(c1ccc2c(c1)OCO2)S(C)(=O)=O
(31) COc1cccc(NC(=O)Cn2c(=O)n(-c3cccc(OC)c3)c(=O)c3sc4ccccc4c32)c1
(32) COc1cccc(N2CCN(C(=S)Nc3cc(C)cc(C)c3)CC2)c1

screen / no.	25	26	27	28	29	30	31	32
DT40 TDP1 CPT	9.2µM*	?	8.2µM*	16µM*	?	?	?	6.5µM*
miR-21 reporter	-2%	-4%	10%	4%	nt	-5%	-22%	1%
uPA generation	nt	nt	nt	nt	-2%	nt	nt	-1%
DT40 TDP1 no CPT	8.2µM*	?	15µM*	16µM*	?	-13%	?	6.5µM*
TDP1 inh	5%	-3%	8%	3%	1%	5%	-1%	nt

(33) CCOc1ccccc1NC(=S)N1CCN(c2cccc(OC)c2)CC1
(34) COc1cccc(N2CCN(C(=S)Nc3ccc(F)cc3)CC2)c1
(35) CC(=O)c1ccc(NC(=O)CN2C(=O)NC3(CCc4ccccc43)C2=O)cc1 (stereo not drawn)
(36) Cc1cc(C)c(C(=O)c2ccc(C(=O)N(C(C)C)C(C)C)cc2)c(C)c1
(37) O=c1cc(O)c2sc3nc(C(F)(F)F)c4c(c3c2[nH]1)CCCCC4
(38) CCn1c(NC(=O)c2ccc(C)cc2)c2ccccc2nc1=O
(39) Cc1ccc(C(=O)NNc2c3ccccc3nc3ccccc23)cc1
(40) Nc1ccccc1C(=O)NNc1c2ccccc2nc2ccccc12

screen / no.	33	34	35	36	37	38	39	40
DT40 TDP1 CPT	21µM*	15%	-11%	16µM*	9%	-6%	13µM*	?
miR-21 reporter	5%	3%	nt	12%	-18%	2%	-34%	-6%
uPA generation	?	4%	-14%	nt	1%	-7%	2%	2%
DT40 TDP1 no CPT	?	2%	-18%	18µM*	-13%	-20%	10µM*	13µM*
TDP1 inh	5%	nt	-1%	-8%	5%	-1%	nt	12%

(41) COc1cccc(C(=O)NNc2c3ccccc3nc3ccccc23)c1
(42) COc1cccc(C(=O)NNc2nc(C)cc(C)n2)c1
(43) COc1ccccc1OCC(=O)NNc1c2ccccc2nc2ccccc12
(44) Cc1cc(C)cc(OCC(=O)O/N=C(\N)c2cccnc2)c1
(45) CS(=O)(=O)N(CC(=O)N/N=C/c1ccco1)c1ccccc1Br
(46) O=C(NNc1c2ccccc2nc2ccccc12)c1ccc(Cl)cc1

screen / no.	41	42	43	44	45	46
DT40 TDP1 CPT	?	-4%	?	-11%	-13%	?
miR-21 reporter	-11%	-2%	28%	-3%	-2%	-1%
uPA generation	11%	5%	-2%	3%	2%	5%
DT40 TDP1 no CPT	12µM*	-4%	18µM*	-30%	-4%	12µM*
TDP1 inh	nt	5%	nt	nt	3%	nt

# Record cards, as listed above:
# COc1ccc(CC(=O)NCCS(=O)(=O)N2CCN(c3ccccc3F)CC2)cc1OC in the list: DT40 TDP1 CPT: ?; miR-21 reporter: 0%; uPA generation: nt; DT40 TDP1 no CPT: ?; TDP1 inh: 8%
# Nc1ccccc1C(=O)NNc1c2ccccc2nc2ccccc12 in the list: DT40 TDP1 CPT: ?; miR-21 reporter: -6%; uPA generation: 2%; DT40 TDP1 no CPT: 13µM*; TDP1 inh: 12%
